A value given as a limit tells only on which side of the number the result lay.

The subject of one data set is MV4-11 cells. Nature of the data set: MV4-11 Cell Cytotoxicity Assay. It counts as cell-based, human. The following applies: read-out: MV4-11 cytotoxicity; 72 hr, CCK-8; tested form: Cl.
Another data set deals with BRD4 (BD1+BD2) (Homo sapiens, UniProt O60885). Nature of the data set: BRD4 Binding Homogeneous Time Resolved Fluorescence (HTRF) Assay. The following applies: read-out: BRD4 Binding Potency, tested form: Cl. A general note: TR-FRET usually uses a lanthanide donor and a delayed reading to cut background.

In the case of `CCn1c(=O)/c(=C2\Sc3ccccc3N2C)s/c1=C\c1cccc[n+]1CCCCCCNC(=O)C[C@@H]1N=C(c2ccc(Cl)cc2)c2c(sc(C)c2C)-n2c(C)nnc21`, the values for the IC50 with MV4-11 cells and at BRD4 (BD1+BD2) were over 1000 nM and 100 to 1000 nM, respectively.
